# Measured values published in US9452154B2, “Methods for treating HCV” (Gilead Sciences, Inc., priority 2010, dated 2016).
# Test system: Huh-7 cells carrying a HCV genotype 1a replicon
# Experiment: Biological Example 3: cytotoxicity in combination studies (MacSynergy II)
# Details: in combination with Compound 4
smiles,measurement,value
"NC(=O)c1ncn([C@@H]2O[C@H](CO)[C@@H](O)[C@H]2O)n1 [Ribavirin, 1-β-D-ribofuranosyl-1H-1,2,4-Triazole-3-carboxamide, reference compound]",Antagonism Volume (cytotoxicity),−1 ± 2 nM^2%
same,Interaction (cytotoxicity),Additivity (Additivity: ≦25 and >−25 nM^2%)
same,Synergy Volume (cytotoxicity),4 ± 3 nM^2%
